PMC12836348, “Alanine Mutagenesis Identifies Specific Amino Acids of Nemertide Alpha‑1 Activity and Its Binding to Target Receptors” (Journal of Natural Products, 2025)

Chains of the proteins cited; added tags and fusions are not shown.
UniProt Q9UQD0, whole entry: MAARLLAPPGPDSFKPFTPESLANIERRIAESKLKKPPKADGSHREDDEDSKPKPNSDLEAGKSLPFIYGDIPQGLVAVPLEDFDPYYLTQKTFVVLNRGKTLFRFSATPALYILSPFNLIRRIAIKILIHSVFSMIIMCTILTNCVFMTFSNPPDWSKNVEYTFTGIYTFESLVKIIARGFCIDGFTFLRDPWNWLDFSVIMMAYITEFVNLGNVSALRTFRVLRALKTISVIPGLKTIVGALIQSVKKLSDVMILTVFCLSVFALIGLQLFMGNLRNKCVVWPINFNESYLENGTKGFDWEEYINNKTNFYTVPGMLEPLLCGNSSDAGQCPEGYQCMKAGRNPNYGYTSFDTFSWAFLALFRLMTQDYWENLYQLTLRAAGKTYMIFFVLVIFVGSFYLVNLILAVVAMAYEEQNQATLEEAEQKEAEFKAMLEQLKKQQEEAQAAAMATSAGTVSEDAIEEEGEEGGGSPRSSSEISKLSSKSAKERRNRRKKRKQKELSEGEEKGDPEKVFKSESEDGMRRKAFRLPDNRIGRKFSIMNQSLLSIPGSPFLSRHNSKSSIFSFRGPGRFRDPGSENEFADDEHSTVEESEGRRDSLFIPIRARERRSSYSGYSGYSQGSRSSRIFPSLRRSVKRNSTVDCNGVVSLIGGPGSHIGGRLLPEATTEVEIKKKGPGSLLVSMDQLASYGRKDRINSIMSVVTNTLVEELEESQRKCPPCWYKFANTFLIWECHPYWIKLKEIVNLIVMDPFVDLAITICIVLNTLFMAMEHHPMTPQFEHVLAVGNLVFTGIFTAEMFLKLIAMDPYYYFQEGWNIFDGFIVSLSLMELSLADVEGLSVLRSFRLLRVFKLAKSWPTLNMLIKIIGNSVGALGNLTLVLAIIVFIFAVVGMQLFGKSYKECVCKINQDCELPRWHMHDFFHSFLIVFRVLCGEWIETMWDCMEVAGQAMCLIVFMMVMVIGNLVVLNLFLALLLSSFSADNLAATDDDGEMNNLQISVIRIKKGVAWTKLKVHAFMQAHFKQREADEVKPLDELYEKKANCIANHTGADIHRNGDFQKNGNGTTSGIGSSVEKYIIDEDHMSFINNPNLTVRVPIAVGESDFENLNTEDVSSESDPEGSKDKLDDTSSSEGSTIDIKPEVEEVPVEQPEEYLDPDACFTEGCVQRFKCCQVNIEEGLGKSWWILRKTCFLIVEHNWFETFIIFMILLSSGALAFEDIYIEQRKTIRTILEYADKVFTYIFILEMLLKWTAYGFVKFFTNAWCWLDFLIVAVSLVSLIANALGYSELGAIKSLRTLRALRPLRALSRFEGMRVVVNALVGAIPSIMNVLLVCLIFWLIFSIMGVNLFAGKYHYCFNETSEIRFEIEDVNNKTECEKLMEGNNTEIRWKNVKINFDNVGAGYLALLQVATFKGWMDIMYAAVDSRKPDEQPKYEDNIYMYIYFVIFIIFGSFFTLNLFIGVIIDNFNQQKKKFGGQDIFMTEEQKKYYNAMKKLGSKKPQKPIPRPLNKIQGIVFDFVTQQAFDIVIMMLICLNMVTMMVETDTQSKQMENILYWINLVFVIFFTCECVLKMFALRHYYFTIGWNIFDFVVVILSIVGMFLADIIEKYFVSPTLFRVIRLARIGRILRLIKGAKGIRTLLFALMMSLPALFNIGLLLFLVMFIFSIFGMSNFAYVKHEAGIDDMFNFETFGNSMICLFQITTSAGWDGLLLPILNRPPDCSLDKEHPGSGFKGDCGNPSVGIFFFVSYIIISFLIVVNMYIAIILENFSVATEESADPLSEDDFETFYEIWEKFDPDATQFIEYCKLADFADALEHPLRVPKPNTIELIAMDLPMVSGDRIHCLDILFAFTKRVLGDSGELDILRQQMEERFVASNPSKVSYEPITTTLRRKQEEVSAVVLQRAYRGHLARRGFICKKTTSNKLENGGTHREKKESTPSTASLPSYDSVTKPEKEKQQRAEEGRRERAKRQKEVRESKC
UniProt Q15858, whole entry: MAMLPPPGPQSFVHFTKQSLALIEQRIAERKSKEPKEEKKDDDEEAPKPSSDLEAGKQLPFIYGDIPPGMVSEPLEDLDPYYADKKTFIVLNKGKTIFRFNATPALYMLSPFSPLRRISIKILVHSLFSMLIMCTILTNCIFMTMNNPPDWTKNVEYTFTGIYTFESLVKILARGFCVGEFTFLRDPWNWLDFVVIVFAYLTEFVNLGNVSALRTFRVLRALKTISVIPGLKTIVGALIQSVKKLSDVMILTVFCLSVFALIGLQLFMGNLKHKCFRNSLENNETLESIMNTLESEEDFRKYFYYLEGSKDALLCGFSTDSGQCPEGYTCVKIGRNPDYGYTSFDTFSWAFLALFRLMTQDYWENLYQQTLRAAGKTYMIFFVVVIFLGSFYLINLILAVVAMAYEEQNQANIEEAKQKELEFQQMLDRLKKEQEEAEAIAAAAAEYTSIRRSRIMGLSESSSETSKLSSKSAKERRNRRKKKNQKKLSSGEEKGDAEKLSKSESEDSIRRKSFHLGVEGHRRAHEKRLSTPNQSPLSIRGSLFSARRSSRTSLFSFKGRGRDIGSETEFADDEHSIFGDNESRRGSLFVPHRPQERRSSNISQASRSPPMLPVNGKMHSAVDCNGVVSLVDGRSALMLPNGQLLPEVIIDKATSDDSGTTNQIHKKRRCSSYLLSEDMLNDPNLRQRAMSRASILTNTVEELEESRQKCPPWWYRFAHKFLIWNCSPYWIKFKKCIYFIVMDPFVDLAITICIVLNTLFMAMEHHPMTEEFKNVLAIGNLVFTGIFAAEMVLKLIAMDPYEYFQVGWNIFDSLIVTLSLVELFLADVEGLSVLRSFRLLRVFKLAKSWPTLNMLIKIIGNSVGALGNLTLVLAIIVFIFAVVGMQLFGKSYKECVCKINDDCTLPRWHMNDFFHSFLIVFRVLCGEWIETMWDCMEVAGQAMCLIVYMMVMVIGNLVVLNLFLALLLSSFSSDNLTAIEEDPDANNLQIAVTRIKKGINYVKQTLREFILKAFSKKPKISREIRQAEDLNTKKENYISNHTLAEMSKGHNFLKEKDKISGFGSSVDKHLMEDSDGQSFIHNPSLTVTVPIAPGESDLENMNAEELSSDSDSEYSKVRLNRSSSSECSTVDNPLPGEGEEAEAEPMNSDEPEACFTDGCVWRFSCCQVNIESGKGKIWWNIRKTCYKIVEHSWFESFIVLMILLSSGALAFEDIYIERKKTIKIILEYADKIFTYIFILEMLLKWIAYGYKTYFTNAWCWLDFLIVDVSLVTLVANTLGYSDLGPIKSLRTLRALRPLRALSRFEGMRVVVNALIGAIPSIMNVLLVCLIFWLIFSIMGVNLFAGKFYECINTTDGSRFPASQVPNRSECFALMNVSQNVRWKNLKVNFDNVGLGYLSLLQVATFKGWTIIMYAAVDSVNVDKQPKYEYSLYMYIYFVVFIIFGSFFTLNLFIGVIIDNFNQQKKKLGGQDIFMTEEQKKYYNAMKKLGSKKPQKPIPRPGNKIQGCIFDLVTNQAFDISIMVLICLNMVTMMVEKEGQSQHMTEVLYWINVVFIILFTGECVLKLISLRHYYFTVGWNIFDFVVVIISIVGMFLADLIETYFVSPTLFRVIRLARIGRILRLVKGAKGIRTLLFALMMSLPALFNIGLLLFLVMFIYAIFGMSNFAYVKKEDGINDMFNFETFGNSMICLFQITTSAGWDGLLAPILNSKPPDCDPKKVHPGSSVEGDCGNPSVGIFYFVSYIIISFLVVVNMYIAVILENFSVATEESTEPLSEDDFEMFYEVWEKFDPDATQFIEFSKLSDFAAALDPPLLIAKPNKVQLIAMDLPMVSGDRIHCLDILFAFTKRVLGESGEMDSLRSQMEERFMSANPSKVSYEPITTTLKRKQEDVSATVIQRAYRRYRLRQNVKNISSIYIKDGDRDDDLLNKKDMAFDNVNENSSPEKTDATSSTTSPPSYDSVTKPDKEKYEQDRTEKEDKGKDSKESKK
UniProt P04775, whole entry: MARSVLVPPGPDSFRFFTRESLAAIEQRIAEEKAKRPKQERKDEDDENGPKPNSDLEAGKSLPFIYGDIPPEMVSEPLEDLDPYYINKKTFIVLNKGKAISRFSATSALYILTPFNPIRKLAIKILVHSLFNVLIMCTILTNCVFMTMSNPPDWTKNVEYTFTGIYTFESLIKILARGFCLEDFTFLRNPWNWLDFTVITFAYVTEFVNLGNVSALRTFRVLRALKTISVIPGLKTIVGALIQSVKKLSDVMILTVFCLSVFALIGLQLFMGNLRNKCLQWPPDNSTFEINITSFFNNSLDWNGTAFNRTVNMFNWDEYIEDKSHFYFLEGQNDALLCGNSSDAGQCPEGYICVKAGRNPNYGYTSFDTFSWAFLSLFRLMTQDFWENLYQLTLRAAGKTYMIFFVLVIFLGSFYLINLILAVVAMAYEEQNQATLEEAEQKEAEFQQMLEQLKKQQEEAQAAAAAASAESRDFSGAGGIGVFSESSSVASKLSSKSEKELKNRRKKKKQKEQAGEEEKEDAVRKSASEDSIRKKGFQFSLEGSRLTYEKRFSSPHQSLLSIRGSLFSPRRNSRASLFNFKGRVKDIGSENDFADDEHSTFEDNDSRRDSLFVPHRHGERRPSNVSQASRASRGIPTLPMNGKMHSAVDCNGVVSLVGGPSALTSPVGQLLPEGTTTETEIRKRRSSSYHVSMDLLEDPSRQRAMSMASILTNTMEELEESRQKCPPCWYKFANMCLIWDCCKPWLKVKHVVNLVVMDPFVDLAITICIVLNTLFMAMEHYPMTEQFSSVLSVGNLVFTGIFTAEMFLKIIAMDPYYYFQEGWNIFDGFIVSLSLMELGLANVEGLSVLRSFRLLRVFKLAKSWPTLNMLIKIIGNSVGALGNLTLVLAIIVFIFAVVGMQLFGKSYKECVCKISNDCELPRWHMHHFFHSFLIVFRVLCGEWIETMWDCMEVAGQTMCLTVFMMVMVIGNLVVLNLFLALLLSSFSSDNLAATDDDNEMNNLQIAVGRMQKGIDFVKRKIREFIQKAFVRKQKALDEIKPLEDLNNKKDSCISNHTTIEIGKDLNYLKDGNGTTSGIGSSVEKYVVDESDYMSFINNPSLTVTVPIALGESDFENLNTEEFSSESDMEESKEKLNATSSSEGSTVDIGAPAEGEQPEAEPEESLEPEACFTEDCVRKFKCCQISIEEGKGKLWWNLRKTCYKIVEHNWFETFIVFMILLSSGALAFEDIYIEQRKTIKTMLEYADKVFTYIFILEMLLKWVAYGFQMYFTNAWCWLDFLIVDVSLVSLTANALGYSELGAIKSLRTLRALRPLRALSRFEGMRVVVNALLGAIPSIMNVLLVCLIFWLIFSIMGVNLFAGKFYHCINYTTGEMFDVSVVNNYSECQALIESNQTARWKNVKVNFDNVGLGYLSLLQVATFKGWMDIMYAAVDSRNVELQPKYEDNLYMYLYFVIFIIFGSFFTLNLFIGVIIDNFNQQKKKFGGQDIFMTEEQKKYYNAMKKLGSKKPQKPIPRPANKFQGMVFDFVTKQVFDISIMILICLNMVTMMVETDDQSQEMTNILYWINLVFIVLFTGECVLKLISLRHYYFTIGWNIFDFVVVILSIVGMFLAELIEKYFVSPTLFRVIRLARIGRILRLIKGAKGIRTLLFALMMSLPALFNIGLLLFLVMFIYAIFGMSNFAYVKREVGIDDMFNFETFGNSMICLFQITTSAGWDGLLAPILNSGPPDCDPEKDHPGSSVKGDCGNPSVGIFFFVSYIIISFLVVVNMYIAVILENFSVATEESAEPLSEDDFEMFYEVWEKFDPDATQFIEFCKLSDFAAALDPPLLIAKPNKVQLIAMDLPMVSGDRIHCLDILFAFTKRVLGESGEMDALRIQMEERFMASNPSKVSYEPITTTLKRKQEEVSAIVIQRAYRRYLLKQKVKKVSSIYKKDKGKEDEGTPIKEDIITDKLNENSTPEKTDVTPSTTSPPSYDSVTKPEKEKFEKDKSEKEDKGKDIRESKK

Key:
BgNav1 = assay: Two-electrode voltage clamp, BgNav1 expressed in Xenopus laevis oocytes; assay type: cell-based, Blattella germanica; details: ex vivo, I30ms/Ipeak, Hill fit, n ≥ 3, highest tested concentration 50 μM
hNaV1.6 = target: T1, hNaV1.6 (Homo sapiens, UniProt Q9UQD0); assay: Two-electrode voltage clamp, Nav1.6 in Xenopus laevis oocytes; assay type: cell-based; details: two-electrode voltage clamp in Xenopus laevis oocytes, Hill fit, n ≥ 3; highest tested concentration 50 μM
T1 construct: expressed in transfected cells; host or cells: Xenopus laevis oocytes (cRNA injection)
Description: For the expression of NaV channels (hNav1.1, rNaV1.2, rNaV1.3, rNaV1.4, hNaV1.5, hNaV1.6, hNav1.7, and the insect channel BgNaV1) in Xenopus laevis oocytes, the linearized plasmids were transcribed using the T7 or SP6 mMESSAGE-mMACHINE transcription kit (Ambion, Carlsbad, CA, USA). The harvesting of stage V and VI oocytes from an anaesthetized female X. laevis frog was described previously. , Oocytes were injected with 50 nL of cRNA at a concentration of 1 ng/nL using a microinjector (Drummond Scientific, Broomall, PA, USA). The oocytes were incubated in a solution containing 96 mM NaCl, 2 mM KCl, 1.8 mM CaCl2, 2 mM MgCl2, and 5 mM HEPES (pH 7.4), supplemented with 50 mg/L gentamycin sulfate. Two-electrode voltage-clamp recordings were performed at room temperature (18–22 °C) using a Geneclamp 500 amplifier (Molecular Devices, Downingtown, PA, USA) controlled by a pClamp data acquisition system (Axon Instruments, Union City, CA, USA). Whole-cell currents from oocytes were recorded 1–4 days after injection. The bath solution composition was 96 mM NaCl, 2 mM KCl, 1.8 mM CaCl2, 2 mM MgCl2, and 5 mM HEPES (pH 7.4). Voltage and current electrodes were filled with 3 M KCl. The resistances of both electrodes were kept between 0.8 and 1.5 MΩ. The elicited Nav channel currents were filtered at 1 kHz and sampled at 20 kHz by using a four-pole low-pass Bessel filter. Leak subtraction was performed using a −P/4 protocol. For the electrophysiological analysis of toxins, a series of protocols was applied from a holding potential of −90 mV with a start-to-start interval of 0.2 Hz. Sodium current traces were evoked by 100 ms depolarizations to V max (the voltage corresponding to maximum sodium current in control conditions).
To assess the concentration–response relationships, data were fitted with the Hill equation: y = 100/[1 + (EC50/[toxin])^ h ], where y is the amplitude of the toxin-induced effect (y = I 30 ms/I peak where I 30 ms is the current value at 30 ms in the presence of toxin and I peak is the peak current amplitude in control conditions), EC50 is the toxin concentration at half-maximal efficacy, [toxin] is the toxin concentration, and h is the Hill coefficient. Potassium and calcium currents were evoked by a 500 ms depolarization to the voltage corresponding to the maximal activation of the channels in control conditions from a holding potential of −90 mV. Elicited currents were sampled at 1 kHz and filtered at 0.5 kHz. For nAChR experiments, the oocytes were clamped at a holding potential of −70 mV and continuously superfused with ND96 via gravity-fed tubes at 0.1–0.2 mL min^–1, with 5 min incubation times for the bath-applied peptides. ACh was applied via gravity-fed tubes until a peak current amplitude was obtained (1–3 s), with 1–2 min washout periods between applications. The nAChR were gated by a particular time duration pulse of ACh for the respective nAChR subtype at 2 mL min^–1. Data were sampled at 500 Hz and filtered at 200 Hz. ASIC1a currents were measured in ND96 solutions at a pH of 7.4 and 4.5, at a holding potential of −70 mV during 400 s, and the data were filtered at 20 Hz. EnaC currents were measured by clamping oocytes at a holding potential of −60 mV and perfusing with low- (1 mM) and high- (96 mM) sodium ND96. Opioid currents were measured by clamping the potential to −70 mV and changing the perfusion solution from ND96 to high-potassium (HK) solution composed of 96 mM KCl, 2 mM NaCl, 1 mM MgCl2, 1.8 mM CaCl2, and 5 mM HEPES, with a final pH of 7.5. The HK-evoked increase in inward K^+ currents represents a “basal” K^+ current (IK, basal). In the presence of HK, 0.2 μM morphine was applied to oocytes and then washed out by HK. TRPV1 and TRPA1 currents were continuously monitored in a perfusing ND96 solution, following a protocol at −90 mV for 400 s. The sampling rate was set at 100 Hz, and the signals were filtered at 20 Hz. One μM capsaicin and 10 μM capsazepine were used for TRPV1. […]

hNav1.7 = target: T2, hNav1.7 (Homo sapiens, UniProt Q15858); assay: Two-electrode voltage clamp, Nav1.7 in Xenopus laevis oocytes; assay type: cell-based; details: alpha-1 EC50 75.6 ± 33.9 nM
T2 construct: expressed in transfected cells; host or cells: Xenopus laevis oocytes (cRNA injection)

rNaV1.2 = target: T3, rNaV1.2 (Rattus norvegicus, UniProt P04775); assay: Two-electrode voltage clamp, Nav1.2 in Xenopus laevis oocytes; assay type: cell-based; details: Hill fit, n ≥ 3, highest tested concentration 50 μM
T3 construct: expressed in transfected cells; host or cells: Xenopus laevis oocytes (cRNA injection)

Structure (SMILES): CC[C@H](C)[C@@H]1NC(=O)[C@@H](NC(=O)CN)CSSC[C@@H]2NC(=O)[C@@H]3CSSC[C@@H](C(=O)N[C@@H](C)C(=O)N4C[C@H](O)C[C@H]4C(=O)N4C[C@H](O)C[C@H]4C(=O)N[C@@H](CC(N)=O)C(=O)N[C@@H](CCC(N)=O)C(=O)O)NC(=O)[C@H](CCCCN)NC(=O)[C@H](Cc4ccccc4)NC(=O)[C@H](CC(N)=O)NC(=O)[C@H](Cc4c[nH]c5ccccc45)NC(=O)CNC(=O)[C@H](CSSC[C@H](NC(=O)[C@H](Cc4ccccc4)NC(=O)[C@H](CO)NC(=O)CNC(=O)[C@H]([C@@H](C)O)NC(=O)[C@H](C)NC1=O)C(=O)N[C@@H]([C@@H](C)O)C(=O)N[C@@H](CC(C)C)C(=O)N[C@@H](CO)C(=O)N[C@@H](CCCCN)C(=O)NCC(=O)N3)NC(=O)[C@H](CC(N)=O)NC(=O)[C@H](CCCCN)NC(=O)[C@H]([C@@H](C)O)NC2=O [Peptide N27A]
- EC50 (BgNav1): 0.0483 ± 0.0028 µM
- EC50 Nav1.6 (hNaV1.6): slightly higher activity
- times lower activity on Nav1.7 than alpha-1 (hNav1.7): lower activity by an order of magnitude
- EC50 Nav1.2 (rNaV1.2): activity in the same range as alpha-1
